The term inhibition denotes the relative decrease from the control value, in per cent.

This is a selection; strong and weak results do not stand in their true shares. Measured potencies and affinities stand elsewhere. Activity calls are given as the source filed them. No rule for the calls is given here.

This test in a line: PhoP regulon inhibitors, Salmonella typhi PhoP promoter GFP reporter, confirmatory (AID 1850).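 Also: 0% = induced wells with vehicle and 100% = uninduced wells.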 Particulars: fluorescence, 4 h, at 50 µM, hits give high values.
As for `O=C(OC1CN2CCC1CC2)c1ccccc1` (centres undefined), the inhibition was inactive: 5.73%.
On to `Cc1ccc(OP(=O)(Nc2ccccn2)Oc2ccc(C)cc2)cc1`, for which the inhibition is inactive: -5.88%.
For `CC(=O)NC(SC(=S)N(CC(C)C)CC(C)C)C(Cl)(Cl)Cl` (centres undefined) the value was inactive: -1.4%.
To `COC(=O)c1cc2c(s1)N=C(c1ccccc1)N(C)P2(=O)N1CCOCC1` (centres undefined) belongs inactive: 2.18%; to `CCOC(=O)NC(Sc1ccccc1)C(Cl)(Cl)Cl` (centres undefined), inactive: 3.89%.
To `Cc1ccc(NP(=O)(Oc2cccc(C)c2)Oc2cccc(C)c2)nc1` belongs inactive: -9.28%; to `c1ccc(-c2nn[nH]n2)c(-c2nn[nH]n2)c1`, inactive: 2.68%.
Regarding `O=C(NC1CCS(=O)(=O)C1)NP(=S)(Oc1ccccc1)Oc1ccccc1` (centres undefined), the inhibition was inactive: 4.32%.
In the case of `CCNC(=S)/N=C(\N)N[N+](=O)[O-]`, the inhibition was inactive: 3.41%.
For `CC(=O)Nc1ccc(Oc2c([N+](=O)[O-])cc([N+](=O)[O-])cc2[N+](=O)[O-])cc1` the value was inactive: 4.32%.
To `CC(=O)Nc1ccc([As](=O)(O)O)c(O)c1` belongs inactive: 0.23%.
For `C[C@H]1OP(=O)(Oc2ccccc2)C[C@@H]2O[C@@H]21` (some centres undefined) the value was inactive: -4.51%; for `C[C@@H]1C=CCP(=O)(Oc2ccccc2)O1` (some centres undefined), inactive: -5.17%.
As for `CC(=O)c1ccc(N2CC2c2ccncc2)cc1` (centres undefined), the inhibition was inactive: 1.8%.
To `CC(C)(C)C(=O)NC(Sc1ccccc1)C(Cl)(Cl)Cl` (centres undefined) belongs inactive: -6.08%; to `CCOc1ccc(C2=NCC(CBr)S2)cc1` (centres undefined), inactive: 4.46%.
Consider `O=P1(Nc2nc3ccc(Cl)cc3s2)COc2ccccc2O1` (centres undefined), for which the inhibition was inactive: -14%.
For `CCOP(=O)(Nc1cccc2ccccc12)OCC` the value was inactive: -7.36%.
Regarding `COc1cc(C2NCCC3(OCCO3)C2(C)C)cc(OC)c1OC` (centres undefined), the inhibition was inactive: -3.29%.
For `Nc1cccc2c([As](=O)(O)O)cccc12` the value was inactive: 1.97%.
For `Cc1ccc(NCCc2c([N+](=O)[O-])cc([N+](=O)[O-])cc2[N+](=O)[O-])cc1` the value was inactive: -8.1%; for `CCCOP(=S)(Nc1nc(N)cc(=O)[nH]1)OCCC`, inactive: -2.36%; for `Cc1cccc(OCC(=O)OC2CN3CCC2CC3)c1` (centres undefined), inactive: 12.6%.
For `O=[As](O)(c1cccc(O)c1)c1cccc(O)c1`, the inhibition is inactive: 5.53%.
For `O=C(OC1CN2CCC1CC2)c1ccc(Cl)cc1` (centres undefined) the value was inactive: 7.89%; for `CS(=O)(=O)c1ccc(Cl)c(NC(=O)COC(=O)C(O)(c2ccccc2)c2ccccc2)c1`, inactive: -5.96%.
For `O=[As](O)(O)c1cccnc1`, the inhibition was inactive: 0.09%.
For `COc1cc(C(=O)NCC2(N3CCOCC3)CCCCC2)cc(Cl)c1OC(C)C` the value was inactive: 4.2%; for `CCOP1(=S)c2c(C)nn(CCC#N)c2N=C(c2ccc(F)cc2)N1C` (centres undefined), inactive: 4.49%; for `CN(C(=O)Cc1ccccc1)[C@@H]1CC[C@]2(CCCO2)C[C@H]1N1CCCC1`, inactive: 0.76%.
As to `N#CCCN(C(=O)COC(=O)C(O)(c1ccccc1)c1ccccc1)c1ccc(F)cc1`, the inhibition was inactive: 2.07%.
To `CN(C(=O)Cc1ccc(Cl)c(Cl)c1)[C@H]1CC[C@@]2(CCCO2)C[C@@H]1N1CCCC1` belongs inactive: -18.5%; to `O=[N+]([O-])c1ccc2c(c1)nnn2O`, inactive: 2.45%; to `CN(C)C(=O)c1cc([N+](=O)[O-])cc2c1-c1c(cc([N+](=O)[O-])cc1[N+](=O)[O-])C2=O`, inactive: -0.14%.
To `NC(=O)Nc1ccc([As](=O)(O)O)cc1` belongs inactive: 5.77%.
To `O=C(O)COc1ccc([As](=O)(O)O)cc1[N+](=O)[O-]` belongs inactive: -3.43%; to `Nc1ccccc1[As](=O)(O)c1ccccc1`, inactive: -13.4%.
For `O=P(Nc1nccs1)(Oc1ccccc1)Oc1ccccc1`, the inhibition was inactive: 21.5%.
To `O=P(Nc1nccs1)(c1ccccc1)c1nc2ccccc2s1` (centres undefined) belongs inactive: 0%; to `CCOP1(=S)c2c(C)nn(CCC#N)c2N=C(c2ccccc2F)N1C` (centres undefined), inactive: -15.1%.
For `CS(=O)(=O)c1cc([N+](=O)[O-])c2no[n+]([O-])c2c1` the value was inactive: -54.9%; for `Nc1cccc([As](=O)(O)c2ccccc2)c1`, inactive: -7.26%.
For `O=[As](O)(c1cccs1)c1cccs1` the value was inactive: 5.33%.
For `Cc1ccc(OCC(=O)OC2CN3CCC2CC3)cc1` (centres undefined), the inhibition was inactive: 0.16%.
For `O=P1(Nc2ccc(Br)cn2)COc2ccccc2OC1` the value was inactive: 3.41%; for `O=P1(Nc2ncccn2)COc2ccccc2OC1`, inactive: -13.1%; for `CN(C)C1(CNC(=O)c2ccc(S(C)(=O)=O)cc2)CCCCC1`, inactive: 4.62%.
To `O=C(/C=C/c1ccccc1)OC1CN2CCC1CC2` (centres undefined) belongs inactive: -0.27%; to `Cc1ccc(C(=O)OC2CN3CCC2CC3)cc1` (centres undefined), inactive: -0.37%.
For `CC1CCC(C(C)C)C(OP(=O)(Nc2ccccn2)c2ccccc2)C1` (centres undefined) the value was inactive: -7.09%; for `Cc1nn(-c2ccccc2)c2c1P(=O)(N1CCOCC1)N(C)C(c1ccccc1)=N2` (centres undefined), inactive: -4.03%; for `CN(C(=O)Cc1ccc(Cl)c(Cl)c1)[C@@H]1CCCC[C@H]1N1CCCC1`, inactive: -2.68%.
As to `CC(C)/C=N\N=C(\N)N[N+](=O)[O-]`, the inhibition is inactive: 0.28%.
For `CC1(CBr)Cn2c(nc3ccccc3c2=O)S1` (centres undefined) the value was inactive: -4.28%.
For `O=[As](O)(c1ccccc1Br)c1ccccc1Br` the value was inactive: 5.61%.
For `COc1ccccc1CNC(=O)COC(=O)C(O)(c1ccccc1)c1ccccc1` the value was inactive: -1.97%; for `CC(C)(C)C(=O)NC(Sc1ncccn1)C(Cl)(Cl)Cl` (centres undefined), inactive: 5.6%.
For `Clc1n[nH]nc1-c1nn[nH][15n]1`, the inhibition is inactive: 6.24%.
For `CCOP(=O)(NC(=NC(C)c1ccccc1)NC(C)c1ccccc1)OCC` (centres undefined) the value was inactive: 5%; for `O=P1(Nc2ccccn2)COc2ccccc2OC1`, inactive: -8.05%.
Consider `CCOP(=O)(Nc1ccc(C)cn1)OCC`, for which the inhibition was inactive: -5.22%.
To `CN(CCCl)Cc1cc(Cl)c(NC2=NCCN2)c(Cl)c1` belongs inactive: 1.05%; to `CCC(C)N(CC(C)C)C(=S)SC(NC(C)=O)C(Cl)(Cl)Cl` (centres undefined), inactive: -17.2%.
On to `O=C(OC1CN2CCC1CC2)c1cccc([N+](=O)[O-])c1` (centres undefined), for which the inhibition is inactive: 6.16%.
Regarding `CCOC(=O)c1ccc(NC(=O)C(C)(CCl)SC)cc1` (centres undefined), the inhibition was inactive: -4.61%.
To `O=C(Nc1ccncc1[N+](=O)[O-])c1ccc([N+](=O)[O-])cc1[N+](=O)[O-]` belongs inactive: 8.82%; to `O=C(COc1ccccc1)OC1CN2CCC1CC2` (centres undefined), inactive: 0.57%; to `COP1(=S)c2c(C)nn(CCC#N)c2N=C(c2ccc(F)cc2)N1C` (centres undefined), inactive: 7.15%.
To `Cc1cc(SC(NC=O)C(Cl)(Cl)Cl)ncn1` (centres undefined) belongs inactive: -4.32%; to `O=P(Nc1ccccn1)(c1cccc2ccccc12)c1cccc2ccccc12`, inactive: 10.9%; to `O=[N+]([O-])c1ccc(Nc2ccc(Oc3ccc([N+](=O)[O-])cc3[N+](=O)[O-])cc2)c([N+](=O)[O-])c1`, inactive: -0.04%.
In the case of `CCOC(=O)Nc1cccc([As](=O)(O)O)c1`, the inhibition was inactive: -8.81%.
In the case of `Cc1cc(SC(NC(=O)c2ccccc2)C(Cl)(Cl)Cl)nc(C(C)C)n1` (centres undefined), the inhibition was inactive: -4.88%.
To `CCOC(=O)Nc1ccc([As](=O)(O)O)c(O)c1` belongs inactive: 8.87%; to `O=[N+]([O-])c1cc([N+](=O)[O-])c(-c2ccn[nH]2)s1`, inactive: -0.95%.
On to `CC(C)NC(=O)NP(=O)(Oc1ccccc1)Oc1ccccc1`, for which the inhibition was inactive: 2.13%.
For `CCN(CC)C(=S)SC(NC=O)C(Cl)(Cl)Cl` (centres undefined) the value was inactive: -3.63%; for `ClCCSc1nnc(-c2cccnc2)o1`, inactive: 7.72%; for `CC(C)c1ccc(OP(=O)(Nc2ccccn2)Oc2ccccc2F)cc1` (centres undefined), inactive: 16.8%.
To `Cc1ccc(OP(=O)(Nc2ccc([N+](=O)[O-])cn2)Oc2ccc(C)cc2)cc1` belongs inactive: -4.34%; to `Cc1ccc2nc3c(c(C)c2c1)CC(C(Cl)Cl)S3` (centres undefined), inactive: -5.48%.
For `O=[As](O)(c1ccc(O)cc1)c1ccccc1O` the value was inactive: -5.82%; for `C[As](=O)(O)c1cccc(C(=O)O)c1`, inactive: -2.82%.
As for `COc1ccc(N/C(=N/P(=O)(N2CCOCC2)N2CCOCC2)N2CCOCC2)cc1`, the inhibition is inactive: -3.32%.
Consider `COc1cc(I)ccc1[As](=O)(O)O`, for which the inhibition is inactive: 1.79%.
For `COc1ccc2nc(NP(=O)(c3ccccc3)c3ccccc3)sc2c1` the value was inactive: 3.59%; for `Cc1c2c(nc3ccccc13)SC(C(Cl)Cl)C2` (centres undefined), inactive: -6.75%.
For `Cc1cc(=O)[nH]c(N[N+](=O)[O-])n1` the value was inactive: -3.2%; for `O=C(OC1CN2CCC1CC2)C12CC3CC(CC(C3)C1)C2` (centres undefined), inactive: 9.94%.
